Laboratory results taken from publication doi:10.1101/2023.06.13.544671.

How the values were obtained:
[1] = molecular target: nucleosome (fluorescently labelled histone octamer) reconstituted on lambda DNA (UniProt P04911)
[2] = molecular target: nucleosome (fluorescently labelled histone octamer) reconstituted on lambda DNA (UniProt P04911); assay: two-colour single-molecule colocalisation on DNA (optical tweezers with confocal microscopy); JFX650-labelled remodeler on sparse lambda nucleosome arrays (Cy3- or JFX554-labelled H2A) held at ~5 pN; no ATP; dwell time of the non-diffusive state of remodelers within ~500 bp of a nucleosome, double exponential fit
[3] = molecular target: nucleosome (fluorescently labelled histone octamer) reconstituted on lambda DNA (UniProt P04911); remark: listed apart in the source
[4] = molecular target: nucleosome (fluorescently labelled histone octamer) reconstituted on lambda DNA (UniProt P04911); assay: two-colour single-molecule colocalisation on DNA (optical tweezers with confocal microscopy); JFX650-labelled remodeler on sparse lambda nucleosome arrays (Cy3- or JFX554-labelled H2A) held at ~5 pN; 1 mM ATPγS; dwell time of the non-diffusive state of remodelers within ~500 bp of a nucleosome, double exponential fit
[5] = molecular target: nucleosome (fluorescently labelled histone octamer) reconstituted on lambda DNA (UniProt P04911); assay: two-colour single-molecule colocalisation on DNA (optical tweezers with confocal microscopy); JFX650-labelled remodeler on sparse lambda nucleosome arrays (Cy3- or JFX554-labelled H2A) held at ~5 pN; 1 mM ATP; dwell time of the non-diffusive state (includes translocation) of remodelers within ~500 bp of a nucleosome, double exponential fit

Substance | average nucleosome translocation speed, 1 mM ATP [1] [bp/s] | median duration of uninterrupted, speed-constant nucleosome translocation, 1 mM ATP [1] [s] | half-life of the non-diffusive state upon nucleosome encounter [2] [s] | half-life of nucleosome translocation events, 1 mM ATP [3] [s] | half-life of the non-diffusive state upon nucleosome encounter [4] [s] | half-life of the non-diffusive state upon nucleosome encounter [5] [s]
RSC chromatin remodeling complex with Sth1-3xFlag-HaloTag (from UniProt P32597 1-1359) | 29 | 33 | 18 | 20 | 28 | 23
ISW2 chromatin remodeling complex with Isw2-3xFlag-HaloTag (from UniProt Q08773 1-1120) | 29 | 22 | 28 | 17 | 28 | 12
